Patent US20260250269A1, “APOPTOSIS INHIBITOR SALTS FOR CANCER” (priority 2022, published 2026)

Legend:
[1] = Photostability test (ICH Option 1, ID65 light)
[2] = Preliminary photostability study of monobromide (D65 light, 1000 lux); format: physicochemical; parameters: key to Thermal behavior / UV / IR / XRPD pattern: a: Conforms to the reference; b: Conforms to Typical DSC/TGA curves as the reference standard; NC: No change
Method: Degradation occurred after 2 months of light exposure (D65 light, 1000 lux, 25° C./60% RH) for the monobromide, as evidenced by a color change from yellow to yellowish brown and a slight increase in HPLC peak areas, attributed to degradation products (Table 17).

[3] = system: SU-DHL-10 human diffuse large B cell lymphoma xenograft; test: Anti-tumor activity against SU-DHL-10 xenograft; format: in vivo, BALB/c nude mice
Method: For the monobromide continuous i.v. infusion group, the monobromide was dissolved with physiological saline to prepare 12.12 mg/mL clear solution.
For the monobromide i.p. injection group, the monobromide was dissolved with physiological saline to prepare 0.41 mg/mL clear solution. The dose volume was determined by the mice′ body weight collected on the morning of dosing day, calculated by the formula: dose volume (10 mL/kg)×body weight.
For the pamoate i.m. injection group, the pamoate salt was mixed with appropriate volume of vehicle solution (0.5% CMC-Na (viscosity 400-800 cps, CAS No. 9004-32-4), 0.2% Tween-80 in 10 mM pH 7.4 PBS saline) to get a uniform suspension after 15 min sonication, with final concentration of 5.6 mg/mL, similar to the procedure described in Example 14. The dose volume was determined by the mice′ body weight collected on the morning of dosing day, calculated by the formula: dose volume (2 mL/kg)×body weight.
Human diffuse large B cell lymphoma cell line SU-DHL-10 was obtained from Cobioer Biotechnology Co., Ltd (China). The cells were cultured at 37° C. with 5% CO2 in RPMI-1640 (Hyclone, USA) supplemented with 10% heat inactivated fetal bovine serum (Gibco, USA) and 1% GlutaMAX (Gibco, USA). The cells were collected, suspended in PBS at 2×10^8 cells/mL, and then mixed with the equivalent volume of Matrigel® Basement Membrane Matrix (Corning, USA).
Six-week-old female BALB/c-nude mice were purchased from SPF Biotechnology Co., Ltd. (Beijing, China). They were maintained on a standard diet and water throughout the experiments under specific pathogen-free conditions. The cells were cultured in vitro and 0.1×10^8 cells/0.1 mL/mouse were grafted subcutaneously into the flank of NOD-SCID (NVSG) mice (Beijing Viewsolid Biotech Co. LTD), 6-week-old. When the tumor reached about 1 cm in diameter, tumor-bearing mice were sacrificed and tumors were removed and sliced into small fragments (approximately 3×3×3 mm^3/fragment) and re-inoculated into BALB/c nude mice. The mice with a tumor volume (length×width^2×0.5) of 99.28 to 247.10 mm^3 were divided into four groups randomly, using Study Director Software (Studylog Systems, Inc, Version 3.1.399.22, USA) to minimize intragroup and intergroup tumor volume variation.
The first day of administration was designated day 0, and observation continued until day 35. Each group was treated as follows (Table 15).
The vehicle control group received i.m. injection of vehicle solution on day 0, 7 and 14 (Group 1). For 21-day continuous i.v. infusion, an osmotic pump containing the monobromide was implanted in the dorsum of each animal while under anesthesia on day 0, with daily dose of […], approximately 1.6 mg/kg/day (Group 2). The monobromide i.p. injection group was administrated referring to FIVE-DAY-ON, TWO-DAY-OFF procedure on day 0-4, 7-11 and 14-18 (Group 3) per Minoda et. al, Antitumor effect of YM155, a novel small-molecule survivin suppressant, via mitochondrial apoptosis in human MFH/UPS, International Journal of Oncology, 2015, 47:891-899. For the pamoate i.m. injection group, drug suspension was administrated once per week at 11.2 mg/kg, approximately 7 times daily dosage of the monobromide i.v. infusion group, on day 0, 7 and 14 (Group 4).

[4] = Body weight in SU-DHL-10 xenografted mice; details: for Mean Body Weight ± SEM: Group 2: 1.6 mg/kg/day continuous i.v. infusion Day 0-21
[5] = ID65 light, 250 W/m^2, 25° C./60% RH (ICH Option 1), 26.2 hours
[6] = ID65 light, 250 W/m^2, 25° C./60% RH (ICH Option 1), 26.2 hours, listed as Monobromide
[7] = Initial, irradiation time 0 hours
[8] = D65 light, 1000 lux, 25° C./60% relative humidity, Storage Period 1 (months)
[9] = D65 light, 1000 lux, 25° C./60% relative humidity, Storage Period 2 (months)
[10] = Group 2: 1.6 mg/kg/day continuous i.v. infusion Day 0-21, Day 21
[11] = Group 2: 1.6 mg/kg/day continuous i.v. infusion Day 0-21, Day 35
[12] = Group 3: 4.1 mg/kg i.p. day 0-4, 7-11, 14-18, Day 21
[13] = Group 3: 4.1 mg/kg i.p. day 0-4, 7-11, 14-18, Day 35

## 1-(2-methoxyethyl)-2-methyl-4,9-dioxo-3-(pyrazin-2-ylmethyl)-4,9-dihydro-1H-naphtho[2,3-d]imidazolium bromide [monobromide]
[1]; ICH Option 1 irradiation, 26.2 hours
  Photostability (in words): severe photodegradation
[1]; [5]
  Description: dark purple crystalline powder
  Purity % (HPLC): 93.61%
  XRPD: no significant change
[1]; [6]
  Description: Dark Purple
  XRPD: Consistent
[1]; [7]
  Description: Yellow
  Purity % (HPLC): 99.81%
[1]; after ICH Option 1 irradiation, 26.2 hours
  Reduction of HPLC purity: 6.2%
[2]; [8]
  Assay (%) HPLC: 100.0%
  Assay (%) Titration: 100.2%
  Description: Yellowish
  IR: NC
  Related Substances (HPLC, %) Each max: 0.13%
  Related Substances (HPLC, %) Total: 0.22%
  Thermal behavior: NC
  UV: NC
  Water content (%): 0.06%
  XRPD pattern: NC
[2]; [9]
  Assay (%) HPLC: 99.5%
  Assay (%) Titration: 100.1%
  Description: Yellowish
  IR: NC
  Related Substances (HPLC, %) Each max: 0.19%
  Related Substances (HPLC, %) Total: 0.49%
  Thermal behavior: NC
  UV: NC
  Water content (%): 0.07%
  XRPD pattern: NC
[2]; Initial, Storage Period 0
  Assay (%) HPLC: 100.9%
  Assay (%) Titration: 100.0%
  Description: Yellow
  IR: a
  Related Substances (HPLC, %) Each max: 0.08%
  Related Substances (HPLC, %) Total: 0.08%
  Thermal behavior: b
  UV: a
  Water content (%): 0.05%
  XRPD pattern: a
[2]; preliminary study, D65 light, 1000 lux, 25° C./60% RH, 2 months
  Photostability (in words): photo-unstable
[3]; Group 2: 1.6 mg/kg/day continuous i.v. infusion Day 0-21, Day 0
  Mean Tumor Volume ± SEM: 155.72 ± 14.71 mm^3
[3]; Group 2: 1.6 mg/kg/day continuous i.v. infusion Day 0-21, Day 7
  Mean Tumor Volume ± SEM: 0.00 ± 0.00 mm^3
[3]; [10]
  Antitumor Activity, percent inhibition of tumor growth (% inh): 118.81%
  Antitumor Activity, percent regression of the tumor (% reg): 100%
  Mean Tumor Volume ± SEM: 0.00 ± 0.00 mm^3
[3]; Group 2: 1.6 mg/kg/day continuous i.v. infusion Day 0-21, Day 28
  Mean Tumor Volume ± SEM: 0.00 ± 0.00 mm^3
[3]; [11]
  Antitumor Activity, percent inhibition of tumor growth (% inh): 107.67%
  Antitumor Activity, percent regression of the tumor (% reg): 80.31%
  Number of CRs (complete response): 3/6
[3]; Group 3: 4.1 mg/kg i.p. day 0-4, 7-11, 14-18, Day 0
  Mean Tumor Volume ± SEM: 156.93 ± 15.69 mm^3
[3]; Group 3: 4.1 mg/kg i.p. day 0-4, 7-11, 14-18, Day 7
  Mean Tumor Volume ± SEM: 5.20 ± 3.29 mm^3
[3]; [12]
  Antitumor Activity, percent inhibition of tumor growth (% inh): 118.96%
  Antitumor Activity, percent regression of the tumor (% reg): 100%
  Mean Tumor Volume ± SEM: 0.00 ± 0.00 mm^3
[3]; [13]
  Antitumor Activity, percent inhibition of tumor growth (% inh): 76.78%
  Antitumor Activity, percent regression of the tumor (% reg): −241.38%
  Number of CRs (complete response): 0/6
[4]; Day 21
  Mean Body Weight ± SEM: 22.07 ± 0.66 g
[4]; Day 35
  Mean Body Weight ± SEM: 22.42 ± 0.57 g
[4]; each group (Groups 2-4), until day 35
  Body weight decrease (in words): no statistically significant decrease in body weight
